The text below walks through data of patent publication US20050009772A1, “Methods and compositions for the treatment of glaucoma and other retinal diseases” (The Regents of the University of California, priority 2003, published 2005).

The data set is described as follows: Body weight monitoring in Experiment 2. In kind it is in vivo, rat. The protocol: Experiment 2 was performed to investigate whether the induction of HSP72 by GGA enhances RGC survival and protects optic nerve axons in a rat glaucoma model. After pretreatment with GGA (200 mg/kg daily) for 7 days, trabecular laser photocoagulation was performed on one eye of each rat (intracameral injection of India ink was performed 5 days before photocoagulation), while the contralateral eye remained untreated. GGA was then given twice a week at the same dose until euthanasia. Sustained elevation of intraocular pressure (IOP) was maintained by performing trabecular laser photocoagulation three weeks after the first photocoagulation. To elucidate the role of HSP expression in the neuroprotective effects of GGA, systemic administration of quercetin at 4 mg/kg was given in the same manner as GGA. Administrations of saline-vehicle, GGA, or GGA with 4 mg/kg of quercetin without trabecular laser photocoagulation were included as controls. IOP and body weight were measured once a week. After 5 weeks of IOP elevation, the number of retrogradely labeled RGCs with dextran tetramethylrhodamine (DTMR) was counted (n=53). The grading of optic nerve injury and the counting of cresyl violet-stained cells in the retinal ganglion cell layer (RGCL) was also performed (n=54).

Geranylgeranylacetone [GGA]: the Weight runs as follows: (0 week) 379 ± 8 g; (1 week) 400 ± 9 g; (2 week) 424 ± 9 g; (3 week) 448 ± 11 g; (4 week) 454 ± 12 g; (5 week) 471 ± 12 g. Besides, the Weight (−1 week) was 371 ± 6 g. For the same substance, the “percentage increase of body weight” value (from first day of injection (1 week before first laser) to euthanasia (5 weeks after first laser)) was 27%. Moreover, under “vehicle, GGA, GGA with quercetin groups”, the “gain in body weight, difference among groups” value is given as “no statistically significant difference”.
